{"source": "paper PMC5783350", "about": "“Development of an activity-based probe for acyl-protein thioesterases” (PLoS ONE, 2018)", "tested_on": "HsAPT1 and HsAPT2 in intact U-2 OS cells", "assay": "Intact mammalian cell labeling, in-gel fluorescence", "assay_type": "cell-based, human", "data": [{"substance": "fluorophosphonate rhodamine", "values": [{"measurement": "Labeling of HsAPT1 and HsAPT2 in intact U-2 OS cells", "result": "did not significantly label any species"}]}]}
